Test results: article PMC4315423 (Journal of Medicinal Chemistry, 2014)

Sequences of proteins named here, by UniProt entry; tags and fusion partners are left off.
UniProt P14416, whole entry: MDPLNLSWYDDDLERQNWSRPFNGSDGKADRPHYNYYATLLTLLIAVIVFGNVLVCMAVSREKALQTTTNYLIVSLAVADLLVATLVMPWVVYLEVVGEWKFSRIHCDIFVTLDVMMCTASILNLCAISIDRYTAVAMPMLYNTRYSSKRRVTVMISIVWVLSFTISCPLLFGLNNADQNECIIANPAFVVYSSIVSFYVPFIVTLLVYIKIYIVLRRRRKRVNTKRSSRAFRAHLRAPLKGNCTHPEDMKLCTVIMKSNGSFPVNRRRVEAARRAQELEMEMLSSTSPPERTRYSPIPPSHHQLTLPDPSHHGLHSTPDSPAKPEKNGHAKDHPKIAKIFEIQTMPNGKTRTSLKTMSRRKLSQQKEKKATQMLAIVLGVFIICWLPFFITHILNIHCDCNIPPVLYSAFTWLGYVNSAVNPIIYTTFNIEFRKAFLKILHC

Target: D2 DAR (Homo sapiens, UniProt P14416)
Assay: DiscoveRx D2 β-arrestin assay
Type: cell-based
Details: fold selectivity, D3 over D2 β-arrestin AC50

D3/D2 (β-arrestin): greater than 17
SMILES: CN1C(=O)c2ccccc2[S+]([O-])c2ccc(C(=O)NCCc3cccs3)cc21 (racemic) [compound 44]
